In one assay the target is T1, CRF2R (Homo sapiens, UniProt Q13324).
T1 sequence (Q13324 1-411): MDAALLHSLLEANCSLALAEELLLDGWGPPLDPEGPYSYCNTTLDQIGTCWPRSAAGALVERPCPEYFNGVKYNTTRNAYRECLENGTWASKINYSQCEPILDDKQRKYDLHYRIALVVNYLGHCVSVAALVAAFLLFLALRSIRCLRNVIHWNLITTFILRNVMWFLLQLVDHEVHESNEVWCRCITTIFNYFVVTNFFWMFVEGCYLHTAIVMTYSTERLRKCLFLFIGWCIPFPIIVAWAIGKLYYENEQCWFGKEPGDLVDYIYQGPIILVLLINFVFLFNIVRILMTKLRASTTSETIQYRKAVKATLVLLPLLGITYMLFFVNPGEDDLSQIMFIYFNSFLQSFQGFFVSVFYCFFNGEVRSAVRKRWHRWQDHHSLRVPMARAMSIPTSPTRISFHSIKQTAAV
The experiment in a line: CRF2R agonist activation (EC50 / Emax), called comparative CRF binding. The assay is classed as cell-based. The following applies: read-out: CRF2R Emax. The method, boiled down: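 Agonism at each human CRF receptor subtype is inferred from increased cAMP relative to vehicle, using cells expressing that subtype and either lysate cAMP measurement or a cAMP response element reporter.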

The next assay deals with T2, CRF1R (Homo sapiens, UniProt P34998).
T2 sequence (P34998 24-415): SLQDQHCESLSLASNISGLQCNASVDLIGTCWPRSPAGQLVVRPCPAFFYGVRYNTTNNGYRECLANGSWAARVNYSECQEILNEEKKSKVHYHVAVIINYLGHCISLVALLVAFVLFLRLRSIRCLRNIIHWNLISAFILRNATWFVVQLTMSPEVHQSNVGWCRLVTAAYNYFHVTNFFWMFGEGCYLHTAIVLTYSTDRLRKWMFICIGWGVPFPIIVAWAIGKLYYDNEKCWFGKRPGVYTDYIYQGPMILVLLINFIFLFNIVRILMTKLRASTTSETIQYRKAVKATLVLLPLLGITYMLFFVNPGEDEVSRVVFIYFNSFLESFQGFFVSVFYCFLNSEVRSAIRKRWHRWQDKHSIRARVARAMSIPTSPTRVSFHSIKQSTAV
The experiment in a line: CRF1R agonist activation (EC50 / Emax), called comparative CRF binding. The following applies: read-out: CRF1R Emax. It counts as cell-based. The source says:
The pharmacological activity and selectivity of the peptides of present invention can be determined using published test procedures. See, e.g, U.S. patent application Ser. No. 09/799,978 (now issued U.S. Pat. No. 6,670,140). Because CRF2R and CRF1R are homologous proteins, it is expected that a certain proportion of agonists for CRF2R will also function as agonists of CRF1R. As discussed above, activation of CRF1R induces activation of the HPA axis since increased corticosteroid production leads to skeletal muscle atrophy. In most cases in which an increase in muscle mass or function is desired, it is not desirable to activate the HPA axis.
Cell-based assays include the steps of contacting cells which express CRF1R or CRF2R with a peptide of the present invention or control and measuring activation of the CRFR by measuring the expression or activity of components of the CRFR signal transduction pathways.
For example, after contact with a peptide of the present invention, lysates of the cells can be prepared and assayed for induction of cAMP. cAMP is induced in response to Gαs activation. Because Gαs is activated by receptors other than CRFR and because a test peptide may be exerting its effect through CRFRs or by another mechanism, two control comparisons are relevant for determining whether the peptide increases levels of cAMP via activation of a CRFR. One control compares the cAMP level of cells contacted with the peptide and the cAMP level of cells contacted with a control compound (i.e., the vehicle in which the peptide is dissolved).
In one example, cAMP induction is measured with the use of DNA constructs containing the cAMP responsive element linked to any of a variety of reporter genes can be introduced into cells expressing CRFRs. Such reporter genes include, but are not limited to, chloramphenicol acetyltransferase (CAT), luciferase, glucuronide synthetase, growth hormone, fluorescent proteins (e.g., Green Fluorescent Protein), or alkaline phosphatase. Following exposure of the cells to the peptide, the level of reporter gene expression can be quantitated to determine the peptide's ability to increase cAMP levels and thus determine the peptide's ability to activate the CRFR.
In addition to using cells expressing full length CRFRs, cells can be engineered which express CRFRs containing the ligand binding domain of the receptor coupled to, or physically modified to contain, reporter elements or to interact with signaling proteins. For example, a wild type CRFR or CRFR fragment can be fused to a G-protein resulting in activation of the fused G-protein upon agonist binding to the CRFR portion of the fusion protein. […] In addition, alternative pathways for induction of the CRE reporter could be eliminated to reduce basal levels.

As a reminder, the Emax is the greatest response seen or fitted, relative to the assay's reference. As to `CC[C@H](C)[C@H](NC(=O)[C@@H](NC(=O)[C@H](CC(=O)O)NC(=O)[C@H](CC(C)C)NC(=O)[C@H](CC(C)C)NC(=O)[C@H](CC(C)C)NC(=O)[C@H](CCCNC(=N)N)NC(=O)[C@H](CC(N)=O)NC(=O)[C@H](CC(N)=O)NC(=O)[C@H](C)NC(=O)[C@H](C)NC(=O)[C@H](CCC(N)=O)NC(=O)[C@H](CCC(N)=O)NC(=O)[C@H](CCCCN)NC(=O)[C@H](CCC(=O)O)NC(=O)[C@H](CCCCN)NC(=O)[C@H](CCC(=O)O)NC(=O)[C@H](CCC(N)=O)NC(=O)[C@H](CCCCN)NC(=O)[C@H](CCC(=O)O)NC(=O)[C@@H](NC(=O)[C@H](CCC(=O)O)NC(=O)[C@@H](NC(=O)[C@H](CCSC)NC(=O)[C@H](CCCCN)NC(=O)[C@H](CCCNC(=N)N)NC(=O)[C@H](CC(C)C)NC(=O)[C@H](CC(C)C)NC(=O)[C@H](CCC(=O)O)NC(=O)[C@H](Cc1ccccc1)NC(=O)[C@@H]1CCCN1C(=O)[C@H](CC(C)C)NC(=O)[C@H](CC(=O)O)NC(=O)[C@@H](NC(=O)[C@H](CO)NC(=O)[C@@H](NC(=O)[C@@H]1CCCN1C(=O)[C@@H]1CCCN1C(=O)CNC(=O)[C@@H]1CCC(=O)N1)[C@@H](C)CC)[C@@H](C)CC)[C@@H](C)CC)[C@@H](C)CC)[C@@H](C)O)C(N)=O` [compound 67], the values for the Emax on CRF2R and on CRF1R were 50% and 96%, respectively.

In the case of `CC[C@H](C)[C@H](NC(=O)[C@@H](NC(=O)[C@H](CC(=O)O)NC(=O)[C@H](CC(C)C)NC(=O)[C@H](CC(C)C)NC(=O)[C@H](CC(C)C)NC(=O)[C@H](C)NC(=O)[C@H](CC(N)=O)NC(=O)[C@H](CC(N)=O)NC(=O)[C@H](C)NC(=O)[C@H](C)NC(=O)[C@H](CCC(N)=O)NC(=O)[C@H](CCC(N)=O)NC(=O)[C@H](CCCCN)NC(=O)[C@H](CCC(=O)O)NC(=O)[C@H](CCCCN)NC(=O)[C@H](CCC(=O)O)NC(=O)[C@H](CCC(N)=O)NC(=O)[C@H](CCCCN)NC(=O)[C@H](CCC(=O)O)NC(=O)[C@@H](NC(=O)[C@H](CCC(=O)O)NC(=O)[C@@H](NC(=O)[C@H](CCSC)NC(=O)[C@H](CCCCN)NC(=O)[C@H](CCCNC(=N)N)NC(=O)[C@H](CC(C)C)NC(=O)[C@H](CC(C)C)NC(=O)[C@H](Cc1ccc(O)cc1)NC(=O)[C@H](CCC(N)=O)NC(=O)[C@@H]1CCCN1C(=O)[C@H](CC(C)C)NC(=O)[C@H](CC(=O)O)NC(=O)[C@@H](NC(=O)[C@H](CO)NC(=O)[C@@H](NC(=O)[C@@H]1CCCN1C(=O)[C@@H]1CCCN1C(=O)CNC(=O)[C@@H]1CCC(=O)N1)[C@@H](C)CC)[C@@H](C)CC)[C@@H](C)CC)[C@@H](C)CC)[C@@H](C)O)C(N)=O` [compound 224], the values for the Emax on CRF2R and at CRF1R were 100% and 27%, respectively.

In the case of `CC[C@H](C)[C@H](NC(=O)[C@@H](NC(=O)[C@H](CC(=O)O)NC(=O)[C@H](CC(C)C)NC(=O)[C@H](CC(C)C)NC(=O)[C@H](CC(C)C)NC(=O)[C@H](C)NC(=O)[C@H](CC(N)=O)NC(=O)[C@H](CC(N)=O)NC(=O)[C@H](C)NC(=O)[C@H](C)NC(=O)[C@H](CCC(N)=O)NC(=O)[C@H](CCC(N)=O)NC(=O)[C@H](CCCCN)NC(=O)[C@H](CCC(=O)O)NC(=O)[C@H](CCCCN)NC(=O)[C@H](CCC(=O)O)NC(=O)[C@H](CCC(N)=O)NC(=O)[C@H](CCCCN)NC(=O)[C@H](CCC(=O)O)NC(=O)[C@@H](NC(=O)[C@H](CCC(=O)O)NC(=O)[C@@H](NC(=O)[C@H](C)NC(=O)[C@H](CCCCN)NC(=O)[C@H](CCCNC(=N)N)NC(=O)[C@H](CC(C)C)NC(=O)[C@H](CC(C)C)NC(=O)[C@H](CCC(N)=O)NC(=O)[C@H](Cc1ccccc1)NC(=O)[C@@H]1CCCN1C(=O)[C@H](CC(C)C)NC(=O)[C@H](CC(=O)O)NC(=O)[C@@H](NC(=O)[C@H](CO)NC(=O)[C@@H](NC(=O)[C@@H]1CCCN1C(=O)[C@@H]1CCCN1C(=O)CNC(=O)[C@@H]1CCC(=O)N1)[C@@H](C)CC)[C@@H](C)CC)[C@@H](C)CC)[C@@H](C)CC)[C@@H](C)O)C(N)=O` [compound 365], the Emax on CRF2R is 94%; at CRF1R, 21%.

With `CC[C@H](C)[C@H](NC(=O)[C@@H](NC(=O)[C@H](CC(=O)O)NC(=O)[C@H](CC(C)C)NC(=O)[C@H](CC(C)C)NC(=O)[C@H](CC(C)C)NC(=O)[C@H](CCCNC(=N)N)NC(=O)[C@H](CC(N)=O)NC(=O)[C@H](CC(N)=O)NC(=O)[C@H](C)NC(=O)[C@H](C)NC(=O)[C@H](CCC(N)=O)NC(=O)[C@H](CCC(N)=O)NC(=O)[C@H](CCCCN)NC(=O)[C@H](CCC(=O)O)NC(=O)[C@H](CCCCN)NC(=O)[C@H](CCC(=O)O)NC(=O)[C@H](CCC(N)=O)NC(=O)[C@H](CCCCN)NC(=O)[C@H](CCC(=O)O)NC(=O)[C@@H](NC(=O)[C@H](CCC(=O)O)NC(=O)[C@@H](NC(=O)[C@H](CCSC)NC(=O)[C@H](CCCCN)NC(=O)[C@H](CCCNC(=N)N)NC(=O)[C@H](CC(C)C)NC(=O)[C@H](CC(C)C)NC(=O)[C@H](Cc1ccc(O)cc1)NC(=O)[C@H](CO)NC(=O)[C@@H]1CCCN1C(=O)[C@H](CC(C)C)NC(=O)[C@H](CC(=O)O)NC(=O)[C@@H](NC(=O)[C@H](CO)NC(=O)[C@@H](NC(=O)[C@@H]1CCCN1C(=O)[C@@H]1CCCN1C(=O)CNC(=O)[C@@H]1CCC(=O)N1)[C@@H](C)CC)[C@@H](C)CC)[C@@H](C)CC)[C@@H](C)CC)[C@@H](C)O)C(N)=O` [compound 56], the Emax on CRF2R was 87%; on CRF1R, 14%.

Regarding `CC[C@H](C)[C@H](NC(=O)[C@@H](NC(=O)[C@H](CC(=O)O)NC(=O)[C@H](CC(C)C)NC(=O)[C@H](CC(C)C)NC(=O)[C@H](CC(C)C)NC(=O)[C@H](CCCNC(=N)N)NC(=O)[C@H](CC(N)=O)NC(=O)[C@H](CC(N)=O)NC(=O)[C@H](C)NC(=O)[C@H](C)NC(=O)[C@H](CCC(N)=O)NC(=O)[C@H](CCC(N)=O)NC(=O)[C@H](CCCCN)NC(=O)[C@H](CCC(=O)O)NC(=O)[C@H](CCCCN)NC(=O)[C@H](CCC(=O)O)NC(=O)[C@H](CCC(N)=O)NC(=O)[C@H](CCCCN)NC(=O)[C@H](CCC(=O)O)NC(=O)[C@@H](NC(=O)[C@H](CCC(=O)O)NC(=O)[C@@H](NC(=O)[C@H](CCSC)NC(=O)[C@H](CCCCN)NC(=O)[C@H](CCCNC(=N)N)NC(=O)[C@H](CC(C)C)NC(=O)[C@H](CC(C)C)NC(=O)[C@H](C)NC(=O)[C@H](C)NC(=O)[C@@H]1CCCN1C(=O)[C@H](CC(C)C)NC(=O)[C@H](CC(=O)O)NC(=O)[C@@H](NC(=O)[C@H](CO)NC(=O)[C@@H](NC(=O)[C@@H]1CCCN1C(=O)[C@@H]1CCCN1C(=O)CNC(=O)[C@@H]1CCC(=O)N1)[C@@H](C)CC)[C@@H](C)CC)[C@@H](C)CC)[C@@H](C)CC)[C@@H](C)O)C(N)=O` [compound 303], the Emax on CRF2R and at CRF1R was 100% in each case.
